# AlphaSeq binding of Ab-91 heavy chain variants to a spike HR2 peptide

Reference: Engelhart et al. 2022, doi:10.1038/s41597-022-01779-4. File: FLAb, binding data.

The target is the same throughout: PDVDLGDISGINAS, from the HR2 region of SARS-CoV-2 spike.

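The parent was found by panning a naive human phage display library on the peptide. In library AAYL51, one, two or three CDR residues were substituted; doubles and triples were drawn at random. The assay is AlphaSeq: two haploid yeast populations carry antibody and antigen on their surface. The frequency of each diploid, read from paired DNA barcodes, reflects how well the two displayed proteins bind. Read counts were normalised to the haploid input and turned into Kd by a linear fit to BCL2-family pairs of known affinity, for each replicate. There are three technical replicates.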

Ab-91 is the parent antibody, in scFv form: VL, then three GGGGS repeats, then VH. The light chain is unchanged in all variants.
VL: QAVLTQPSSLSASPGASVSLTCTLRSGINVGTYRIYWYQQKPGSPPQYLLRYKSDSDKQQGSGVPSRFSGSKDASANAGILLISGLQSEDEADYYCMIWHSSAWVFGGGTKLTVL
VH: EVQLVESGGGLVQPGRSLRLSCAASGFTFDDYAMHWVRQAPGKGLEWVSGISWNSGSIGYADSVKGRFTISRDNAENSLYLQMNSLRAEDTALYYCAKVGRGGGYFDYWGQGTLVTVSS

Positions count from residue 1 of the parent VH; D30I puts I in place of D. The read-out is the apparent dissociation constant on a log10 scale (nM): the lower, the stronger. A mean of the replicates is given; it leaves out those without a signal. Where no diploid with the target was found in any replicate, the entry reads "no signal": below detection, most likely a poor binder, though not proof of it. Order: sorted from the lowest average up, undetected variants last. Background: pairings of library AAYL51 with three empty control strains gave a value in 21% of cases (median 4.54, 5th percentile 3.26). Values in that range, when seen in few replicates, are hard to tell from nonspecific mating. For each scFv, signals with the empty controls are counted beside the result.

mean log10 Kd (nM)	seen in	control signals	changes
1.20	3/3	3/9	D30I/N54D/Y105Q
1.25	3/3	1/9	G26L/A33P/I51M
2.09	3/3	3/9	G56A/G100W/G102M
2.19	3/3	3/9	F27A/H35M/D62I
2.48	3/3	1/9	D62R/K65L
2.66	3/3	1/9	W53S/I58H/F106W
2.80	3/3	6/9	D30S/G59A
3.05	1/3	2/9	T28L/Y32W/D107F
3.35	3/3	4/9	M34V/G56M
3.71	1/3	2/9	K65Y/G100E/Y105V
3.80	1/3	0/9	Y32D/G50W/G100C
3.81	2/3	3/9	G59A/R101Q/G102C
3.86	1/3	0/9	M34Q/N54L/I58W
3.99	1/3	1/9	G103F/G104S
4.07	1/3	0/9	Y32R/S57W/Y105W
4.16	2/3	0/9	D31V/G50C/N54W
4.21	2/3	1/9	D31N/N54D/G102P
4.25	1/3	4/9	A33Y/K65C/D107K
4.29	1/3	1/9	F27M/F29G/G56Y
4.33	2/3	3/9	G26N/A33L
4.38	1/3	1/9	S52R/G59E/G104N
4.46	1/3	3/9	F29N/H35M
4.63	2/3	0/9	F29E/W53A/D62W
4.66	1/3	0/9	F27Y/I51K/Y60L
4.70	1/3	4/9	I51P/Y60C/G104K
4.71	2/3	2/9	D31P/S63G/D107H
4.73	1/3	4/9	G56E/S63F/G102H
4.77	1/3	2/9	S55Y/G59C/D62K
4.86	2/3	3/9	T28K/F29G/N54V
4.87	3/3	3/9	G56F/S57V/V99P
4.91	3/3	3/9	W53P/S63E/G104R
4.92	2/3	6/9	F27G/H35Y/G104P
5.05	1/3	1/9	I51A/S52H/D62G
5.14	1/3	0/9	F29H/R101V/D107I
5.25	1/3	5/9	T28N/M34W/G59V
5.30	1/3	3/9	D30C/G59A
5.63	1/3	2/9	F29V/A33V/Y108E
5.78	1/3	6/9	H35M/Y60E/G103L
5.86	1/3	4/9	I51G/K65I/F106P
5.89	3/3	4/9	D30M/G59S/F106I
5.97	2/3	5/9	T28H/H35Q/V64I
6.15	1/3	1/9	I51E/I58C/G59N
6.34	1/3	1/9	Y60L/G100T/G102C
6.49	1/3	5/9	G26W/W53V/D107V
no signal	0/3	0/9	Y32I/A61N/D62P
no signal	0/3	1/9	F27S/G50W/K65N
no signal	0/3	4/9	G59D/G102M/G103P
no signal	0/3	1/9	T28D/D30E/D107W
no signal	0/3	0/9	G50K/S63K/G102S
no signal	0/3	0/9	A33R/H35R/R101Q
no signal	0/3	0/9	D30R/A61C/F106S
no signal	0/3	0/9	D30I/S55D/D62T
no signal	0/3	0/9	D31H/S55T/G102W
no signal	0/3	0/9	H35G/Y60W/V64P
no signal	0/3	1/9	I58H/G102K
no signal	0/3	0/9	D30V/G50P/S52V
no signal	0/3	0/9	S55L/G100N/D107R
no signal	0/3	0/9	S55I/G56D/D62Y
no signal	0/3	0/9	G26N/N54A
no signal	0/3	2/9	M34A/H35T/R101S

A selection of 10 entries from above:

changes	mean log10 Kd (nM)	seen in	control signals
I51P/Y60C/G104K	4.70	1/3	4/9
Y32I/A61N/D62P	no signal	0/3	0/9
D30V/G50P/S52V	no signal	0/3	0/9
G59D/G102M/G103P	no signal	0/3	4/9
F27M/F29G/G56Y	4.29	1/3	1/9
G56A/G100W/G102M	2.09	3/3	3/9
D30M/G59S/F106I	5.89	3/3	4/9
Y60L/G100T/G102C	6.34	1/3	1/9
G56F/S57V/V99P	4.87	3/3	3/9
G56E/S63F/G102H	4.73	1/3	4/9

Parent in this assay: reference entry 1.86, copy in this library 0.88.